{"source": "patent US4605658A", "about": "(priority 1983, dated 1986)", "tested_on": "Parainfluenza", "assay": "microbe, parasite or virus in culture", "format": "cell-based", "conditions": "Vero B, read-out: MIC50"}
{"compound": "Nc1ncnc2c1ncn2C[C@H](O)CO", "note": "[(S)--DHPA, 9-(2,3-dihydroxypropyl)adenine, reference compound]", "values": [{"measurement": "EC50", "value": 20, "unit": "µg/mL"}]}
